For two compounds, Activity and inhibition results are on record in ChEMBL document CHEMBL5528070, “Design and Synthesis of Dual-Target Inhibitors Targeting Androgen Receptors and Glucocorticoid Receptors to Overcome Antiandrogen Resistance in Castration-Resistant Prostate Cancer” (J Med Chem, 2024).

Protein sequences, listed by entry. Tags and fused reporters are not part of them. Lines headed by an entry give the natural chain unless they say otherwise; changes in a name come on top.
UniProt P10275: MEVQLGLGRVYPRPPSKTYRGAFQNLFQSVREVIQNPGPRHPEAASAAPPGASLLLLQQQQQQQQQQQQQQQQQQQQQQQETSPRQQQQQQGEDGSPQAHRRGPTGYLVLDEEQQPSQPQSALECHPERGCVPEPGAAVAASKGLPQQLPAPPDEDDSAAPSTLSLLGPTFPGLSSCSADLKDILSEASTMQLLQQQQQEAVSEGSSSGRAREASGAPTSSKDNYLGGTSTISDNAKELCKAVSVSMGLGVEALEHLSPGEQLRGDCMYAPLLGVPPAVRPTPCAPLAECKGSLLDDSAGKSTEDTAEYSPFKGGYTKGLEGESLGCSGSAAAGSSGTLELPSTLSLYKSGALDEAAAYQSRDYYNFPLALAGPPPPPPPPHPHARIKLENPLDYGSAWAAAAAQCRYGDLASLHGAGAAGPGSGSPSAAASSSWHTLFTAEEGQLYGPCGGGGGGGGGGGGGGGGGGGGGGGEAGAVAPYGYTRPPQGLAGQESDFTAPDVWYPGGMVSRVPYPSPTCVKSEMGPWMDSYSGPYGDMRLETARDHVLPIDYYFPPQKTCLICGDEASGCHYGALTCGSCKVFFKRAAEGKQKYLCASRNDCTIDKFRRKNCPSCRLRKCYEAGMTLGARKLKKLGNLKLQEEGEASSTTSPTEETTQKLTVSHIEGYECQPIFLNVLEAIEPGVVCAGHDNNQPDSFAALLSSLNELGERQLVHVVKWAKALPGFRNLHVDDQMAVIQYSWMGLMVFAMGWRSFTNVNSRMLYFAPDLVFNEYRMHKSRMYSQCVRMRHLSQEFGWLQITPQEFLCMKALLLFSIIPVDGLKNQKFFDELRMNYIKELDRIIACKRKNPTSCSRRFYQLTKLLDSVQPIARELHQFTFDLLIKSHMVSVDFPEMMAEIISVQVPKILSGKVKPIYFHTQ

The source made the active and inactive calls. No cut-off for these calls is given here.

The target of data set [1] is T1, Androgen receptor (Homo sapiens, UniProt P10275). In words: Binding affinity to androgen receptor in human LNCaP cells assessed as increase in thermal stability at 100 uM incubated for 1 hr by Western blot analysis. The format is cell-based.
Data set [2] is described as follows: Toxicity in BALB/c nude mouse assessed as drug tolerance at 10 to 30 mg/kg, IG measured upto 14 days. To be noted: in vivo, po, 336 h, dose 10-30 mg/kg, time < 14 day. The format is organism-based.
Data set [3] can be described thus: Toxicity in BALB/c nude mouse assessed as effect on body weight at 10 to 30 mg/kg, IG measured upto 14 days. To be noted: in vivo, po, 336 h, dose 10-30 mg/kg, time < 14 day. The format is organism-based.
For data set [4], the target named is T1, Androgen receptor. In words: Inhibition of androgen receptor in human LNCaP cells assessed as reduction in PSA level measured after 24 hrs by qRT-PCR analysis. The format is cell-based. To be noted: dose 1-20 µM. For orientation: In qPCR the cycle at which signal appears reflects the starting amount.
For data set [5], the target named is T1, Androgen receptor. Nature of the data set: Inhibition of androgen receptor in human LNCaP cells assessed as reduction in TMPRSS2 level measured after 24 hrs by qRT-PCR analysis. The format is cell-based. To be noted: dose 1-20 µM.
Data set [6] deals with T1, Androgen receptor. In words: Inhibition of androgen receptor in human LNCaP cells assessed as reduction in PSA level measured after 24 hrs in presence of 17-hydroxy-13,17-dimethyl-1,2,6,7,8,13,14,15,16,17-decahydro-3H-cyclopenta[a]phenanthren-3-one by Western blot analysis. To be noted: dose 1-20 µM. The format is cell-based.
The next data set has as its system CWR22R. In words: Antiproliferative activity against human 22Rv1 cells assessed as reduction in cell viability at upto 128 uM measured after 72 hrs in presence of mifepristone by CCK-8 method. The format is functional, cell-based.

As for `N#Cc1ccc(NC(=O)c2cccc(S(=O)(=O)N3CCCc4ccccc43)c2)cc1`, the result at Androgen receptor [1] was Active. Besides, the Activity entry in data set [2] and in data set [3] was “Non-Toxic” each time. Moreover, the inhibition result on Androgen receptor [4], on Androgen receptor [5] and at Androgen receptor [6] was “Dose-Dependent Effect” throughout.
Take `CC(O)c1cc(C(=O)N[C@@H](C)Cn2ccc(-c3ccc(C#N)c(Cl)c3)n2)n[nH]1` (some centres not stated) [DAROLUTAMIDE]: the result with CWR22R was Active.
